Measurements reported in ChEMBL document CHEMBL2046324, “Synthesis and biological evaluation of 1-arylsulfonyl-5-(N-hydroxyacrylamide)indoles as potent histone deacetylase inhibitors with antitumor activity in vivo” (J Med Chem, 2012).

Protein sequences, listed by entry. Tags and fused reporters are not part of them.
UniProt Q92769, whole entry: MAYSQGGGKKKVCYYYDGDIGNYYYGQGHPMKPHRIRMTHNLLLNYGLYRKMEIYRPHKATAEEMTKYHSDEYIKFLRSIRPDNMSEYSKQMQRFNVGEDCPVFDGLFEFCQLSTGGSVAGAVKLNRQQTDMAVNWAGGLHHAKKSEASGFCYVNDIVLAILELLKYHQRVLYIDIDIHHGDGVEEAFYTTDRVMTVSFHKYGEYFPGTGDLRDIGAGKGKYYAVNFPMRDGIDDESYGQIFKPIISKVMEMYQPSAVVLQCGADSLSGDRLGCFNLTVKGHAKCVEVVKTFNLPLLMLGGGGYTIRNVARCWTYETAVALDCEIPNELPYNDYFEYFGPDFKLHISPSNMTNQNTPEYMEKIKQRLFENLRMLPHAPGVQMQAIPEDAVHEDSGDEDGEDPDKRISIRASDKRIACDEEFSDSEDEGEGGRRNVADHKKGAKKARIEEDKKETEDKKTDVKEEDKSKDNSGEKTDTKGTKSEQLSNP

Legend:
[1] = molecular target: T1, Protein deacetylase HDAC6 (Homo sapiens, UniProt Q9UBN7); test: Inhibition of human recombinant HDAC6 after 30 mins by fluorometric assay
T1 sequence (Q9UBN7 whole entry): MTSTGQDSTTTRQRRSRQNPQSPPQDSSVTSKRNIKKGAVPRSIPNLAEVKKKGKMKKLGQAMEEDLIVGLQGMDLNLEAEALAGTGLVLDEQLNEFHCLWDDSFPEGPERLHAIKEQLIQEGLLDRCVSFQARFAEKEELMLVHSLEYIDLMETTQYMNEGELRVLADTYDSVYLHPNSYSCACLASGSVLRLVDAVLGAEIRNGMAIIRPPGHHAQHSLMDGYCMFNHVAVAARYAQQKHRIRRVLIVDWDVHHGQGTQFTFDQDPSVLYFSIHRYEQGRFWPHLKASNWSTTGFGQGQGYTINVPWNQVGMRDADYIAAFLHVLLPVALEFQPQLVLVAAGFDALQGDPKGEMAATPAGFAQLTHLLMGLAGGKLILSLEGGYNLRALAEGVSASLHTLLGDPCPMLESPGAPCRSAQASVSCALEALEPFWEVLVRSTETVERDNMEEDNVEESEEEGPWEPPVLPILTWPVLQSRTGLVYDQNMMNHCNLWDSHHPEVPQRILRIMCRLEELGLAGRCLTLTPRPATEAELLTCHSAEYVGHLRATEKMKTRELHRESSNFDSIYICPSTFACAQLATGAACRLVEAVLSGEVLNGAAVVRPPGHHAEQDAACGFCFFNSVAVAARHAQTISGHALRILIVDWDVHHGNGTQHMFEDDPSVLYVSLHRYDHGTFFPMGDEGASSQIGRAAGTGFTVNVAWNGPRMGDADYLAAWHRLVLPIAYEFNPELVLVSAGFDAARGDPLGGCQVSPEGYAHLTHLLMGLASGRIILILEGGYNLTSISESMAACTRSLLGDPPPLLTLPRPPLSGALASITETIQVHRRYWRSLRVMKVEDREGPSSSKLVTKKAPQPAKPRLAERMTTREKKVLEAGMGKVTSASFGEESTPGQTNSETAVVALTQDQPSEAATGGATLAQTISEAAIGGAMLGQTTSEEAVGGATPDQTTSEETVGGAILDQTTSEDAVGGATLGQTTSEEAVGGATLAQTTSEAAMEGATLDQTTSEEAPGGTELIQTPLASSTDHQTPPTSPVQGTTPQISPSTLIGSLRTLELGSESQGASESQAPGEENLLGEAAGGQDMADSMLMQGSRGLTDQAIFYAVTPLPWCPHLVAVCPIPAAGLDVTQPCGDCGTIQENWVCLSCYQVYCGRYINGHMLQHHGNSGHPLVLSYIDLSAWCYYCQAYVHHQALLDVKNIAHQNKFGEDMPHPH

Histone deacetylase 2 = Histone deacetylase 2 (Homo sapiens, UniProt Q92769); test: Inhibition of human recombinant HDAC2 after 30 mins by fluorometric assay

`O=C(/C=C/c1ccc2c(ccn2S(=O)(=O)c2ccccc2)c1)NO` was tested, and the IC50 [1] was 1 nM and the IC50 (Histone deacetylase 2) was 4 nM.
